From patent publication US6784191B2, “Benzamidine derivatives” (Ajinomoto Co., Inc., priority 1999, dated 2004)

By UniProt entry, the sequences of proteins in these tests, tags left out. Residues count along the entry.
UniProt P00742, 235-488 limits assumed: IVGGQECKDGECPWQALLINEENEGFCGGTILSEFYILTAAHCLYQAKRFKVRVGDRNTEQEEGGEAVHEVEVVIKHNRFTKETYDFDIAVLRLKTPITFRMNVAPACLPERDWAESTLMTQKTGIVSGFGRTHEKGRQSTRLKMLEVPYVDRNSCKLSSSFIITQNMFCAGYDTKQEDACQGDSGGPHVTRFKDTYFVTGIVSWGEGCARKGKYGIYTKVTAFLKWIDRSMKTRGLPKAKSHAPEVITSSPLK
UniProt P00742, 41-179 partner limits assumed: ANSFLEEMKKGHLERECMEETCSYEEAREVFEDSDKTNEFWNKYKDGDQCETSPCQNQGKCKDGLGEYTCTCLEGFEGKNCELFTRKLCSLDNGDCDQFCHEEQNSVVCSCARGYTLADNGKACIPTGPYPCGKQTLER

What was measured:
[1] = biological target: activated human blood coagulation factor X (Homo sapiens, UniProt P00742); experiment: Determination of activity of inhibiting the activated blood-coagulation factor X (chromogenic substrate, initial rate); settings: negative logarithm of concentration inhibiting 50% of initial rate; tris hydrochloride buffer pH 8.4, room temperature; tested form: bis-TFA
Procedure: Determination of Activity of Inhibiting the Activated Blood-coagulation Factor X
130 μl of 100 mM tris hydrochloride buffer adjusted to pH 8.4 was added to 10 μl of an aqueous solution of a compound to be tested. Then 10 μl of a 0.5 unit/ml solution of activated human blood coagulation factor X (a product of Enzyme Research Co.) in tris hydrochloride buffer of pH 8.4 was added to the resultant mixture. After the incubation at room temperature for 10 minutes, 50 μl of a solution of N-benzoyl-L-isoleucine-L-glutamine-glycine-L-arginine-P-nitroanilide hydrochloride (a product of Peptide Institute Inc.) adjusted to 0.8 mM with tris hydrochloride (pH 8.4) was added thereto. The absorbance was determined and then the initial reaction rate was determined. A control was prepared in the same manner as that described above except that the solution of the compound to be tested was replaced with 10 μl of tris hydrochloride buffer adjusted to pH 8.4. The absorbance was determined with MICROPLATE READER Model 3550-UV (a product of BIO RAD) at a wave length of 405 nm at intervals of 15 seconds for 16 minutes. […]

human thrombin = human thrombin (Homo sapiens, UniProt P00734); experiment: Determination of thrombin-inhibiting activity (S-2238 chromogenic substrate, initial rate); settings: negative logarithm of concentration inhibiting 50% of initial rate; tris hydrochloride buffer pH 8.4, room temperature; tested form: bis-TFA
Procedure: Determination of Thrombin-Inhibiting Activity
130 μl of 100 mM tris hydrochloride buffer adjusted to pH 8.4 was added to 10 μl of an aqueous solution of a test compound. Then 10 μl of a solution of human thrombin (a product of SIGMA Co.) adjusted to 2 units/ml with tris hydrochloride buffer of pH 8.4 was added to the resultant mixture. After the incubation at room temperature for 10 minutes, 50 μl of a solution of D-phenylalanine-L-pipecolyl-L-arginine-P-nitroanilide dihydrochloride (S-2238; a product of Daiichi Kagaku Yakuhin Co.) adjusted to 0.4 mM with tris hydrochloride buffer of pH 8.4 was added thereto. The absorbance was determined and then the initial reaction rate was determined. A control was prepared in the same manner as that described above except that the solution of the compound to be tested was replaced with 10 μl of tris hydrochloride buffer adjusted to pH 8.4. The absorbance was determined with MICROPLATE READER Model 3550-UV (a product of […]) at a wave length of 405 nm at intervals of 15 seconds for 16 minutes. The negative logarithm (pIC50) of a concentration of the test compound which inhibits 50% of the activity (initial rate) of the thrombin in the absence of the test compound was determined, and employed as the index of the activity of inhibiting thrombin.

Row | Activity of inhibiting activated blood coagulation factor X (pIC50) [1] | Thrombin-inhibiting activity (pIC50) (human thrombin) | SMILES
1 | 7.4 | 3.9 | CCOP(=O)(O)CCc1ccc(C(=N)N)cc1OCCNC(=O)C1CCN(c2ccncc2)CC1
2 | 6.9 | 4.3 | CCOP(=O)(CCc1ccc(C(=N)N)cc1OCCNC(=O)C1CCN(c2ccncc2)CC1)OCC
